Values of other authors in patent US6413974B1, “6,9,-disubstituted 2-[trans-(4-aminocyclohexyl) amino] purines” (Aventis Pharmaceuticals Inc., priority 1998, dated 2002).

Assays:
[1] = tested on: PC12 cells, or rat sympathetic neurons; conditions: both or individual olomoucine or flavopiridol, in the presence or absence of camptothecin; cited from earlier work
[2] = tested on: neuronal PC12 cells and sympathetic neurons; conditions: cited from earlier work

Cn1cnc2c(NCc3ccccc3)nc(NCCO)nc21
cell death at day 6 [1]: approximately 30% | apoptosis of post-mitotic differentiated or sympathetic neurons ([2]; following withdrawal of NGF): prevented apoptosis | death of neuronal PC12 cells and sympathetic neurons ([2]; two model systems of neuronal survival, Park et al. 1996): suppress the death
